# From PubChem BioAssay (NCATS)
# The chains behind the UniProt entries cited, without tags or fusion partners. Where a name states a change or a piece, a line headed by the entry shows the natural chain unless it says otherwise.
# UniProt Q9HAZ1: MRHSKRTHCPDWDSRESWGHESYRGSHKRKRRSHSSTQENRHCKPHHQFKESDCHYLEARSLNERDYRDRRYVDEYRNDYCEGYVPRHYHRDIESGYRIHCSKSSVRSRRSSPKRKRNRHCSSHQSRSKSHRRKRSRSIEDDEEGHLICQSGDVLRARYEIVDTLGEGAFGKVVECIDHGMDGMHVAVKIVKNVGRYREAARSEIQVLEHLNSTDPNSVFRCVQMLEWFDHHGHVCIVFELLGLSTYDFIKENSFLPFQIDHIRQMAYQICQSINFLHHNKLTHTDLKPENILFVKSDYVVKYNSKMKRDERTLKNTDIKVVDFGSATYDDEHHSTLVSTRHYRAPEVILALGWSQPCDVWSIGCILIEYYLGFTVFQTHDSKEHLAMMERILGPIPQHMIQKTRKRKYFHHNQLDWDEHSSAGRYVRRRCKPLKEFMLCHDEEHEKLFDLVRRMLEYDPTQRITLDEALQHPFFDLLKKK
# UniProt P02791: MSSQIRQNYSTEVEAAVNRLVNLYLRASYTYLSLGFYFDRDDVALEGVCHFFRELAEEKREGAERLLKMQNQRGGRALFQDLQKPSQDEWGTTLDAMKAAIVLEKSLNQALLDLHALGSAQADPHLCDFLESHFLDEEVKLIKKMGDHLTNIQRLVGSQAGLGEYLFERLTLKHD
# UniProt P27695, whole entry, looked up: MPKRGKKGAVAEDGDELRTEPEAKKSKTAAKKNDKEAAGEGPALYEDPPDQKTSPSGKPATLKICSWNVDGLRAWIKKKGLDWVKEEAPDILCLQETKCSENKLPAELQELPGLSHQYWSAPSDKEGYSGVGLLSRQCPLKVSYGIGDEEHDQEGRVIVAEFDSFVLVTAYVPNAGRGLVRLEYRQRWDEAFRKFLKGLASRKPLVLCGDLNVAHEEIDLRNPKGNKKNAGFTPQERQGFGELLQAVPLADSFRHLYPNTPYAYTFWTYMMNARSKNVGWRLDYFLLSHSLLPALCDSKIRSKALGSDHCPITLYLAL
# UniProt Q99549: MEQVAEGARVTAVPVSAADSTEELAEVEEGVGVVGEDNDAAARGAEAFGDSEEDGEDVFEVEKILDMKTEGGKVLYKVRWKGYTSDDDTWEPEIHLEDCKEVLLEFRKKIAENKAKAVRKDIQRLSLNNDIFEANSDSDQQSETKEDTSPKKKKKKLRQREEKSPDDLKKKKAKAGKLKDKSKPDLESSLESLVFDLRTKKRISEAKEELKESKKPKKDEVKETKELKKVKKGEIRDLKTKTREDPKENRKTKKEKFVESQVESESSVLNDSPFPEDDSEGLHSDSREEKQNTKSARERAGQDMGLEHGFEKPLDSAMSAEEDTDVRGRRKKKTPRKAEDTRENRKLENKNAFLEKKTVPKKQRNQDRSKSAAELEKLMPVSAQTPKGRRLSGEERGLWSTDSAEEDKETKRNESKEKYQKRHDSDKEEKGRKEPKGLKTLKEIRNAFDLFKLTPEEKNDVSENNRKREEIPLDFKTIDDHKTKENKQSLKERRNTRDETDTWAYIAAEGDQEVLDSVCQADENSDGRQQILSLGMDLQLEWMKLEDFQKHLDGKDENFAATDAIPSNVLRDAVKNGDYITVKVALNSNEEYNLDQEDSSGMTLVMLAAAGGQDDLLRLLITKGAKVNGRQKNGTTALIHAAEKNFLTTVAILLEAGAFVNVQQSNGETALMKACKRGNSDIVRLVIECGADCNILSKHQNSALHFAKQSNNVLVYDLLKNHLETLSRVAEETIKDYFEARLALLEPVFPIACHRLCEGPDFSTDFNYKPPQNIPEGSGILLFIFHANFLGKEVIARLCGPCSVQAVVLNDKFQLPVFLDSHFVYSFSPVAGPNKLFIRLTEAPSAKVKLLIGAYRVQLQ
# UniProt O94782: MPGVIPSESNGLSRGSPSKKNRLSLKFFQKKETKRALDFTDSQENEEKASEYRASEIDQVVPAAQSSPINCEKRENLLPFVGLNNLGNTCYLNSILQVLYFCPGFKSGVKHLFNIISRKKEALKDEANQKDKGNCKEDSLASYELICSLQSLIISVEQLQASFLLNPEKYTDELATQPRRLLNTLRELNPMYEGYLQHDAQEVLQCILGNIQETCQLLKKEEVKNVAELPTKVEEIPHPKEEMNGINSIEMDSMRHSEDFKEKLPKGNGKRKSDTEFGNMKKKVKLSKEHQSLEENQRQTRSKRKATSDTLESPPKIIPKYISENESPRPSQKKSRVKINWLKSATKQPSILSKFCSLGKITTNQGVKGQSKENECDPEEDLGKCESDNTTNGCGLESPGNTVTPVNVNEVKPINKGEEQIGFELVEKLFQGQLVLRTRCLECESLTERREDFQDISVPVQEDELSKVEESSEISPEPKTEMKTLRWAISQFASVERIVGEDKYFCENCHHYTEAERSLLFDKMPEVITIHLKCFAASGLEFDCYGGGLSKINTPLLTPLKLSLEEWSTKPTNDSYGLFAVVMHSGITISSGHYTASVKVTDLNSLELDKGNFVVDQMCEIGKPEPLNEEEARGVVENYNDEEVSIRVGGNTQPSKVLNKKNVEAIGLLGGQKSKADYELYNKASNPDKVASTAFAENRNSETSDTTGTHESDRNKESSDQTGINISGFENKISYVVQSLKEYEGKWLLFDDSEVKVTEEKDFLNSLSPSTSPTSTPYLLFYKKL
# UniProt Q03431: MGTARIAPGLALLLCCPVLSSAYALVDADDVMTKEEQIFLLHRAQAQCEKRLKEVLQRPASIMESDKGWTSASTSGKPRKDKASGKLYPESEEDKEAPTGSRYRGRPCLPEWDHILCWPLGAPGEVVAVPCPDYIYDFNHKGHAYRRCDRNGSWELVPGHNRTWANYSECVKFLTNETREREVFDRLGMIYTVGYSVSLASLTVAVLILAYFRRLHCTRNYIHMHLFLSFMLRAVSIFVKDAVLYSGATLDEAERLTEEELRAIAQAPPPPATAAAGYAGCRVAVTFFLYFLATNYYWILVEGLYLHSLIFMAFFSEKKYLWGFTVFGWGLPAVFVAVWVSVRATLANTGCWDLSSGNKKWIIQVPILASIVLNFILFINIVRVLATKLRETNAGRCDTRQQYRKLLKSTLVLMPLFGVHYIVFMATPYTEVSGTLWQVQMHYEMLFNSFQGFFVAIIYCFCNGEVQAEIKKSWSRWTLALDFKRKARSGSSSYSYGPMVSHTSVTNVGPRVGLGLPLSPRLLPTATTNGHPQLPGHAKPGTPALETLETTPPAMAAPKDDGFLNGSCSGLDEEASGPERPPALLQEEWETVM
# UniProt P10635, whole entry, looked up: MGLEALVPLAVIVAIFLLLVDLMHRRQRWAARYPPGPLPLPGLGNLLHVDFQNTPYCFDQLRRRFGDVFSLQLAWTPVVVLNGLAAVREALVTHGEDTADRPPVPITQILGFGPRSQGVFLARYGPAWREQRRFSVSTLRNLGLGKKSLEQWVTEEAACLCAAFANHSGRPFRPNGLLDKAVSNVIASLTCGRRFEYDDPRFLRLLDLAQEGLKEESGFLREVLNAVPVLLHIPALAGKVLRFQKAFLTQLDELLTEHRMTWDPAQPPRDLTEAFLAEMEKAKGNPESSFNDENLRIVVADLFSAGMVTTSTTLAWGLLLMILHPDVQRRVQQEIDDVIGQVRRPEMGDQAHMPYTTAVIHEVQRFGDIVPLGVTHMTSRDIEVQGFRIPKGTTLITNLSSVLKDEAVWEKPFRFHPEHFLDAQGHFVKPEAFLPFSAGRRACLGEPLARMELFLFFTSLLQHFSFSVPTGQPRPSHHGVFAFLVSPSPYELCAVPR
# UniProt O75604: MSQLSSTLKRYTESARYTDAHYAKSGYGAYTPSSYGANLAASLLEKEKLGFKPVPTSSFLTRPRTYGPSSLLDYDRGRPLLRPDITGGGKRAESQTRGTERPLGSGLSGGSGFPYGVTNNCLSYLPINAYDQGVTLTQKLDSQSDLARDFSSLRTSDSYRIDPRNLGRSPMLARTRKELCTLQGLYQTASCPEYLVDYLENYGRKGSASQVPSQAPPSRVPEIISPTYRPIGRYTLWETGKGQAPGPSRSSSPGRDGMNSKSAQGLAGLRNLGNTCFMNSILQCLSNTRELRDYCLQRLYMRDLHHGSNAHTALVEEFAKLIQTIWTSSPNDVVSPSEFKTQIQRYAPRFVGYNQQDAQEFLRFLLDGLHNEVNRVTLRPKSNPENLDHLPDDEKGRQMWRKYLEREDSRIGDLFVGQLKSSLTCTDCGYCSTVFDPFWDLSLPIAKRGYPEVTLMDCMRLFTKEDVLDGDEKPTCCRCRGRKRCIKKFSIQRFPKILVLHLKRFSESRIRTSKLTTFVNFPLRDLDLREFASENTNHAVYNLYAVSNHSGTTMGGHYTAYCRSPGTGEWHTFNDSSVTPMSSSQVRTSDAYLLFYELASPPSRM
# UniProt P19793: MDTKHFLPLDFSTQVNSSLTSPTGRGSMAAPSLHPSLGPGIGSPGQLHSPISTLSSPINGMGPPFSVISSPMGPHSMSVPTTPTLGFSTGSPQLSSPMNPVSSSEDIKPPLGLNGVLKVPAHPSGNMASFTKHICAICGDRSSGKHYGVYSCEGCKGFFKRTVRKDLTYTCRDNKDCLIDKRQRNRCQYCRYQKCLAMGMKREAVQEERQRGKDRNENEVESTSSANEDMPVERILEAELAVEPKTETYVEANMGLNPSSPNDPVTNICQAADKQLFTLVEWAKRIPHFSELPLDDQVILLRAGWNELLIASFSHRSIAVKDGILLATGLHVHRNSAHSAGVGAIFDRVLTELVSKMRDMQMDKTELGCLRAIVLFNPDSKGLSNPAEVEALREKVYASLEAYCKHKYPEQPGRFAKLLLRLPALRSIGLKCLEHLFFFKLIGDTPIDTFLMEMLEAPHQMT
# For some assays here: Most of the hits are listed elsewhere, so they are rarer here than in the full data. Results filed as inconclusive are left out. The list shows a part of the results, in another mix than the full data. The source made the active and inactive calls. Unless noted, the call rests on the fitted dose curve; in most records, active means well fitted curve in the direction sought with a large enough effect; inconclusive means small, poorly fitted or top-dose-only effect, or another doubt; inactive means no such curve, though single readings can be large; an effect the other way counts as inactive or inconclusive.
# What was measured:
# [1] = qHTS Assay for Lipid Storage Modulators (AID 1519; calls by dose curve; on activity change, negative = inhibition: on the % scale 0 is the no-effect control and ±100 the full control effect); settings: Drosophila S3 cells, BODIPY lipid droplet/cell ratio, laser cytometry, cells loaded with oleic acid; for activity change, negative = inhibition: at 57.5 µM (top of the series)
# Summary of the method: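 Cells seeded at 5,000 per well were treated with compounds over a concentration series and loaded with oleic acid (400 uM, as added). Lipid droplet fluorescence (488 nm excitation, 500-530 nm channel) was read by laser-scanning cytometry and normalized to 20 uM Triacsin C.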
# [2] = qHTS for differential inhibitors of proliferation of Plasmodium falciparum line D10 (AID 1877); settings: at 28.7 µM (top of the series);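 further: parasites grown with compound for 72 h before DNA staining; plate controls were vehicle wells for no effect and reference inhibitor wells for full effect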
# [3] = qHTS Assay for Identifying Gametocytocidal Compounds (AID 743244);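 further: on the % scale 0 is the no-effect control and ±100 the full control effect; actives lower the fluorescent signal which means gametocytes are killed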; settings: P. falciparum 3D7 stage III-V gametocytes, alamarBlue, 72 h; stronger effect = lower value
# Summary of the method: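 3D7 gametocytes, stages III–V, 20,000/well; cpd 72 h, 37 °C/5% CO2; + alamarBlue 24 h; fluor. Ex 525/Em 598.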
# [4] = biological target: Dual specificity protein kinase CLK4 (Homo sapiens) (UniProt Q9HAZ1); assay: qHTS Assay for Inhibitors of CDC-like Kinase 4 (Kinase-Glo Assay) (AID 1770); settings: recombinant Clk4, Kinase-Glo ATP depletion luminescence; further: potency means the concentration at half of the fitted maximal effect; nearly all actives have a fitted effect of over 65% in size
# Summary of the method: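 Clk4 25 nM, RS peptide 100 uM, ATP 1 uM, pH 7.5 Tris, 10 mM MgCl2, 2.5 mM DTT; 4.5 h RT; ATP depletion read by Kinase-Glo luminescence.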
# [5] = biological target: Dual specificity protein kinase CLK4 (Homo sapiens) (UniProt Q9HAZ1); assay: qHTS Assay for Inhibitors of CDC-like Kinase 4 (ADP-Glo Assay) (AID 1771); settings: recombinant CLK4, ADP-Glo luminescence; further: potency means the concentration at half of the fitted maximal effect; nearly all actives have a fitted effect of over 70% in size
# Summary of the method: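 Kinase reaction: Clk4 at 25 nM, RS repeat peptide substrate at 100 uM, ATP at 1 uM, 1 hr, room temperature. Product ADP detected as luciferase signal via ADP-Glo.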
# [6] = biological target: Ferritin light chain (Equus caballus) (UniProt P02791); assay: qHTS Validation Assay for Identification of Novel General Anesthetics (AID 2323); settings: horse apoferritin, anesthetic-site fluorescent probe displacement; at 76.9 µM (top of the series); further: on the % scale 0 is the no-effect control and ±100 the full control effect
# Summary of the method: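 Normalized fluorescence response, scaled between free 1-AMA and 1-AMA/apoferritin complex, fitted to a four-parameter Hill equation for concentration-effect values. Binding mix: 10 uM horse-spleen apoferritin, 50% saturated 1-AMA in PBS; read 380/535 nm after 10 min.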
# [7] = biological target: DNA repair nuclease/redox regulator APEX1 (Homo sapiens) (UniProt P27695); assay: Confirmation qHTS Assay for Inhibitors of the Human Apurinic/apyrimidinic Endonuclease 1 (APE1) (AID 2572); settings: purified APE1, fluorogenic abasic-site DNA cleavage; at 57.1 µM (top of the series);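 further: fluorescence gain from purified APE1 cutting a TAMRA/BHQ-2 THF abasic duplex; on the % scale 0 is the no-effect control and ±100 the full control effect; nearly all actives have a fitted effect of over 30% in size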
# Summary of the method: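 Readout: kinetic fluorescence (Ex 525, Em 598 nm) from APE1 incision of a 5'-TAMRA, 3'-BHQ-2 duplex containing a THF abasic site at 50 nM final. Compound preincubation 15 min, room temperature.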
# [8] = High Content Imaging Cell-Based qHTS for Inhibitors of the mTORC1 Signaling Pathway in MEF (Tsc2-/-, p53-/-) Cells (AID 2666); settings: at 38.3 µM (top of the series);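 further: percent of cells scored positive for phospho-rpS6 Ser235/236 immunostaining by imaging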
# Summary of the method: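 Phospho-rpS6 (Ser235/236) immunofluorescence, normalized and scored as % positive cells using rapamycin and DMSO controls, was read in empty-vector Tsc2-/-, p53-/- MEFs after 24 h compound exposure at 37 C; propidium iodide counted cells.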
# [9] = biological target: M-phase phosphoprotein 8 (Homo sapiens) (UniProt Q99549); assay: qHTS Validation Assay for Inhibitors for MPP8 Chromodomain Interactions with Methylated Histone Tails (AID 488949); settings: AlphaScreen MPP8 binding to H3K9me3 peptide;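 further: 50 nM MPP8 with 50 nM peptide preformed then compounds added for 30 min; AlphaScreen signal from MPP8 chromodomain bound to biotinylated H3K9me3 peptide; top concentration of the series differs between compounds; on the % scale 0 is the no-effect control and ±100 the full control effect; nearly all actives have a fitted effect of over 55% in size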
# Summary of the method: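 Chemiluminescent proximity assay: histidine-tag capture via nickel acceptor beads, biotin peptide via streptavidin donor beads. Protein and peptide each at 50 nM, pH 7.4, with 30 min incubations at room temperature for complex formation, compound exposure and bead binding.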
# [10] = biological target: Ubiquitin carboxyl-terminal hydrolase 1 (Homo sapiens) (UniProt O94782); assay: Inhibitors of USP1/UAF1: Pilot qHTS (AID 504865); settings: purified USP1/UAF1, Ub-rhodamine cleavage fluorescence;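 further: rhodamine fluorescence freed from ubiquitin-rhodamine substrate followed over time; top concentration of the series differs between compounds; on the % scale 0 is the no-effect control and ±100 the full control effect; nearly all actives have a fitted effect of over 35% in size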
# Summary of the method: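 Enzyme-free wells gave the negative control, while test wells held 1nM USP1/UAF1 preincubated with compound for 15 min at room temperature. Ub-Rho at 150nM final started the reaction, and fluorescence at 480/540 nm was recorded kinetically.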
# [11] = S16 Schwann cell PMP22 intronic element beta-lactamase assay (AID 624044; calls by dose curve;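 further: 0% = DMSO and -100% = potassium clavulanate positive control; nearly all actives have a fitted effect of over 15% in size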); settings: S16 rat Schwann cells, PMP22 element beta-lactamase FRET, 24 h; at 17.1 µM (top of the series)
# Summary of the method: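 Rat S16 Schwann cells with beta-Lac driven by a PMP22 intronic element, compound-treated 24 h at 37 °C. LiveBLAzer FRET B/G read: 460 nm normalized to potassium clavulanate vs DMSO; 535 nm FRET as viability; concentration-effect curves classified.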
# [12] = biological target: Parathyroid hormone/parathyroid hormone-related peptide receptor (Homo sapiens) (UniProt Q03431); assay: qHTS for PTHR1 Agonists: Optimization Screen against the NCGC LOPAC library (AID 1347079); settings: HEK293 GP2 PTHR1 GloSensor cAMP luminescence, 1 h; at 57.1 µM (top of the series);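 further: GloSensor cAMP luminescence in HEK-293 GP2 cells expressing human PTHR1 with IBMX; 0% is about no effect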
# Summary of the method: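 Compounds were tested across a qHTS titration. PTHR1-expressing GP2 cells report cAMP rises via GloSensor luminescence after 1 hr compound exposure at 37C with IBMX present.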
# [13] = biological target: Cytochrome P450 2D6 (Homo sapiens) (UniProt P10635); assay: Cytochrome P450 family 2 subfamily D member 6 (CYP2D6) small molecule antagonists: luciferase biochemical (cell-free) qHTS assay (AID 1645840; active means well fitted curve in the direction sought with a large enough effect in the repeat runs; an effect the other way counts as inactive or inconclusive; further: potency means the concentration at half of the fitted maximal effect; nearly all actives have a fitted effect of over 55% in size); settings: P450-Glo CYP2D6 enzyme, luciferin luminescence, 1 h
# Summary of the method: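 P450-Glo luminescent screen: recombinant CYP2D6 enzyme–proluciferin substrate mix preincubated with compound 10 min at room temperature, then NADPH regeneration added for 1 h at room temperature. Detection reagent added for 20 min; luciferin light read as relative luminescence units.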
# CRL-7250 = normal cell line; assay: qHTS assay to identify novel small-molecules to repurpose for Merkel cell carcinoma treatment (AID 1296009); settings: MCC and control cell lines, CellTiter-Glo viability, 72 h; at 44.8 µM (top of the series); further: nearly all actives have a fitted effect of over 60% in size
# Summary of the method: (§1)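 Cells were incubated with compound for 72 hr at 37 degree celsius before CellTiter-Glo addition. Luminescence was normalized with no-cell wells as full cytotoxicity and DMSO as baseline.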
# NIH3T3 = assay: as above; settings: MCC and control cell lines, CellTiter-Glo viability, 72 h; at 44.8 µM (top of the series)
# Summary of the method: as §1
# [14] = biological target: Ubiquitin carboxyl-terminal hydrolase 2 (Homo sapiens) (UniProt O75604); assay: qHTS for Inhibitors of Ubiquitin-specific Protease USP2a Using CHOP2 as the Reporter: K484 Substrate (AID 652173); settings: USP2 cleavage of DiUb K48 IQF substrate, fluorescence;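 further: cleavage of internally quenched K48 di-ubiquitin substrate measured as rising fluorescence over time; potency means the concentration at half of the fitted maximal effect; nearly all actives have a fitted effect of over 70% in size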
# Summary of the method: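 USP2 (dispensed at 5 nM) was pinned with compounds, then DiUb K48 internally quenched fluorescent substrate (dispensed at 100 nM) was added. The buffer was 20 mM Tris pH 8, 2 mM beta-mercaptoethanol and 0.05% CHAPS. Cleavage was read kinetically as rising fluorescence, Ex 525/Em 598.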
# [15] = qHTS assay for small molecule antagonists of retinoid X receptor alpha signaling (AID 588546; active means well fitted inhibition curve with a large enough effect in the signal ratio, with a control signal flat, not every such curve was filed as active; the % refers to the signal ratio; further: potency means the concentration at half of the fitted maximal effect;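 on max response: cells stimulated with 9-cis-retinoic acid as agonist; on the % scale 0 is the no-effect control and ±100 the full control effect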); settings: HEK293T RXRa-UAS-bla, beta-lactamase ratio, antagonist mode; measured here: W530 green channel, cytotoxicity proxy
# Summary of the method: (§2)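 Beta-lactamase reporter inhibition, read as CCF4 fluorescence ratio (ex 405, em 460/530 nm) after 2 h at RT. HEK293T UAS-bla cells, 2500/well, were stimulated with 9-cis-RA at 500 or 100 nM final alongside test compound for 18 h at 37 C.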
# [16] = biological target: Retinoic acid receptor RXR-alpha (Homo sapiens) (UniProt P19793); assay: as above; settings: HEK293T RXRa-UAS-bla, beta-lactamase ratio, antagonist mode
# Summary of the method: as §2
# [17] = measured here: cell count channel max response
# [18] = measured here: lipid channel max response
smiles,measurement,setting,value
Clc1ccc(N2CCN(Cc3c[nH]c4ncccc34)CC2)cc1,"activity change, negative = inhibition",[1],inactive: -0.632%
same,max response,[1]; [17],50.1%
same,max response,[1]; [18],50.2%
same,"activity change, negative = inhibition",[2],inactive: -22.2%
same,max response,[3],inactive: 5.48%
COc1ccc(C[C@H](C)NC[C@@H](O)c2ccc(O)c(NC=O)c2)cc1,"activity change, negative = inhibition",[1],inactive: 0.739%
same,max response,[1]; [17],8.8%
same,max response,[1]; [18],9.21%
Cc1noc(C)c1-c1ccc2ncnc(NCc3cccnc3)c2c1,Potency,[4],active: 0.891 µM
same,Potency,[5],active: 0.891 µM
Nc1nc(N)c2nc(-c3ccccc3)c(N)nc2n1,"activity change, negative = inhibition",[6],inactive: 3270%
COc1c(N2CCNC(C)C2)c(F)cc2c(=O)c(C(=O)O)cn(C3CC3)c12 (stereo unspecified),"activity change, negative = inhibition",[7],inactive: -6.46%
COc1ccc2cc([C@H](C)C(=O)O)ccc2c1,outcome,[8],inactive
same,"activity change, negative = inhibition",[9]; at 57.1 µM (top of the series),inactive: -4.63%
same,"activity change, negative = inhibition",[9]; at 114 µM (top of the series),inactive: -4.51%
same,"activity change, negative = inhibition",[10]; at 54.9 µM (top of the series),inactive: -9.65%
same,"activity change, negative = inhibition",[10]; at 114 µM (top of the series),inactive: -11.6%
same,"ratio activity, negative = inhibition",[11],inactive: -0.649%
same,activation,[12],inactive: 20.3%
C#C[C@]1(O)CC[C@H]2[C@@H]3CCC4=Cc5oncc5C[C@]4(C)[C@H]3CC[C@@]21C,Potency,[13],active: 13.8 µM
O=C(NCc1ccc(S(=O)(=O)c2cc(F)cc(F)c2)cc1)c1ccc2nccn2c1,Potency,[13],active: 26.8 µM
Oc1ccc(C2CNCCc3c2cc(O)c(O)c3Cl)cc1 (stereo unspecified),outcome,CRL-7250,inactive
COc1cccc(OC)c1C(=O)N[C@@H]1C(=O)N2[C@@H]1SC(C)(C)[C@@H]2C(=O)O,outcome,NIH3T3,inactive
Cc1ccc(S(=O)(=O)Nc2cc(C(F)(F)F)ccc2C(=O)Nc2nc(-c3ccccc3)cs2)cc1,Potency,[14],active: 1.09 µM
CC(C)(Sc1ccc(CCN(CCCCC2CCCCC2)C(=O)NC2CCCCC2)cc1)C(=O)O,max response,[15],-9.29%
same,Potency,[16],active: 35.5 µM
